GIV-Gai inh = inhibitors of GIV peptide binding to Galpha-i3, primary screen, biochemical, fluorescence polarization, FITC-GIV GBA peptide, rat Galphai3 | Guanine nucleotide-binding protein G(i) subunit alpha-3 (Rattus norvegicus), P08753 | 90 min; active compounds read low; scaled: aluminum fluoride 0%, vehicle 100% | 210,000 tested, 0.42% active | AID 1224905, 2016 | percent of control (FP), % (no concentration beside the values);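 active means replicate mean at 85% of control or lower, very high polarization wells dropped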;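 further: wells of about 15 µL received 100 nL stock; the first replicate is given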
GIV Gai FP conf = GIV-Galpha-i3 inhibition, FP confirmation | AID 1259350 | 580 compounds, 38% hits | shares compounds with GIV-Gai inh | fluorescence polarization, mP at 100 µM | FITC-GIV peptide binding to Galphai3, fluorescence polarization; stronger effect = lower value;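 active = inhibition score of 15 or more, meaning 100 minus mean polarization as percent of control over three replicates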
GIV-Gai AS conf = GIV-Galpha-i3 inhibition, AlphaScreen confirmation; shares compounds with GIV-Gai inh; AlphaScreen Galphai3-GIV binding, purified proteins, 90 min; stronger effect = lower value; AlphaScreen counts at 100 µM; 580 compounds, 39% hits;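 active = inhibition score at or above a set limit, where the score is 100 minus the three-replicate mean percent of control signal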
An asterisk follows results filed as active. This is one part of a sample in which hits are shown more often than they occur.

The chains behind the UniProt entries cited, without tags or fusion partners.
Guanine nucleotide-binding protein G(i) subunit alpha-3 (Rattus norvegicus), P08753, UniProt P08753, whole entry, looked up: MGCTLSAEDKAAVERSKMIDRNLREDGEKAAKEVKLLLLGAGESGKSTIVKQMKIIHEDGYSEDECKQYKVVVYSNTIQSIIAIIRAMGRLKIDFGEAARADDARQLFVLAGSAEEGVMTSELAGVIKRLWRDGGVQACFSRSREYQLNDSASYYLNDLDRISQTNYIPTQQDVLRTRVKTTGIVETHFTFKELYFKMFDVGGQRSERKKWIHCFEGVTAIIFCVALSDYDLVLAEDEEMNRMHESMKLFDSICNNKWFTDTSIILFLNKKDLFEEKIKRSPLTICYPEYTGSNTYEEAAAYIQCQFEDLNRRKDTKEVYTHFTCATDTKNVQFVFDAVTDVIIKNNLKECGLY

SMILES	GIV-Gai inh	others
COc1ccc(/C=C2\N=C(c3ccc(Cl)cc3)N(c3cccc(C)c3)C2=O)cc1OC	117
COc1cc(/C=C2\N=C(c3ccccc3)N(c3ccc(Cl)c(Cl)c3)C2=O)cc(OC)c1OC	108
COc1cc(/C=C2\N=C(c3ccccc3)N(c3ccc(Br)cc3)C2=O)cc(OC)c1OC	111
COc1cc(Nc2nc(SCC(=O)NCCc3ccc(S(N)(=O)=O)cc3)nc3ccccc23)cc(OC)c1	100
O=c1c(=NNc2ccccc2)c(=O)c2ccccc12	111
O=S(=O)(Cc1nn[nH]n1)c1ccccc1	104
O=c1c(=NNc2nn[nH]n2)c(=O)c2ccccc12	40*	GIV Gai FP conf=39*;GIV-Gai AS conf=17853*
Cc1cc(=O)oc2c1ccc1occ(NO)c12	102
Cn1c(SCc2cccnc2)ncc(C(=O)Nc2ccc(F)cc2)c1=O	101
C=CCn1c(SCc2nc(-c3ccccc3)no2)nc2cc3c(cc2c1=O)OCO3	106
O=C(O)Cc1ccc(O)cc1	98
Cc1ccc(C)n1-c1sccc1C(=O)CC#N	106
Cc1ccc(C)n1-c1ccc(C(=O)O)c(C(=O)O)c1	60*	GIV Gai FP conf=49*;GIV-Gai AS conf=3015*
CC(=O)Nc1sccc1C(=O)O	100
Cc1ccc(C)n1-c1cccc(N)c1	123
Cc1ccc(C)n1-c1ccc(CC(=O)O)cc1	36*	GIV Gai FP conf=33*;GIV-Gai AS conf=2612*
O=C(O)c1ccc(C(=O)O)c(C(=O)O)c1	107
Cc1ccc(C)n1-c1sccc1C(=O)O	27*	GIV Gai FP conf=55;GIV-Gai AS conf=3223*
CCCCOc1ccc(CC(=O)O)cc1	111
O=C(CC(c1ccc(F)cc1)N1Cc2ccccc2C1=O)Nc1cccnc1 (stereo unspecified)	104
COc1ccc(C2Nc3ccccc3C(=O)N2c2cccc3ccccc23)cc1COc1ccc(Cl)cc1 (stereo unspecified)	99
Cc1cc(C)c2nc(/N=C(\N)NC(=O)C(C)(C)C)nc(C)c2c1	92
Nc1c(C(=O)NCc2ccccc2)sc2nc(N3CCCC3)c3c(c12)CCCC3	108
O=C(c1cccc(C(F)(F)F)c1)N1CCCc2ccccc21	112
Nc1c(C(=O)N2CCc3ccccc32)sc2nc(C(F)(F)F)c3c(c12)CCCC3	95	GIV Gai FP conf=75;GIV-Gai AS conf=39316
Cc1n[nH]c(C)c1NC(=O)c1cc2ccccc2oc1=O	102
CN(C)c1cc(N)c2ccccc2n1	95
COc1ccc(OC)c(C2=NS(=O)(=O)N(C)C(C(=O)Nc3ccc(F)cc3F)=C2)c1	95	GIV Gai FP conf=80;GIV-Gai AS conf=32539
CN1C(C(=O)Nc2ccc(F)cc2F)=CC(c2ccco2)=NS1(=O)=O	106
Cc1ccc(C2=NS(=O)(=O)N(C)C(C(=O)Nc3ccc(F)cc3F)=C2)cc1	106
CN(CC(=O)N1CCc2ccccc2C1)S(=O)(=O)c1cc2c(cc1Cl)NC(=O)CO2	104
COCCN1C(=O)/C(=C/c2cn(CC(=O)OC)c3ccccc23)C(=O)N(c2ccccc2)C1=O	118
CCN(CC)C(=O)Cn1cc(/C=C2/C(=O)N(C)c3ccccc32)c2ccccc21	104
CCn1cc(/C=C2/C(=O)N(c3ccccc3)c3ccccc32)c2ccccc21	53*	GIV Gai FP conf=69;GIV-Gai AS conf=38150
COCCCNC(=O)C1CCN(c2cc(-c3ccc(F)cc3)ncn2)CC1	105
COc1ccc(NC(=O)N2Cc3cccn3-c3ccccc32)cc1	96
O=C(c1cccc(-c2noc(-c3ccccc3Br)n2)c1)N1CCCC1	96
CC(=O)Nc1nonc1NC(C)=O	107
CCOc1cc(/C=C2\SC(NC(C)=O)=NC2=O)c(Br)cc1OC(C)=O	106
CC(=O)Nc1cc(OC(C)=O)c2nonc2c1OC(C)=O	-28*	GIV Gai FP conf=16*;GIV-Gai AS conf=3290*
COc1ccccc1OCC(=O)N1CCC(c2nc3ccccc3s2)CC1	103
Cn1c(=O)c(-c2noc(C(=O)N3CCN(c4ccccc4)CC3)n2)nn(-c2ccccc2)c1=O	103
C=CCSC1=C(C#N)C(c2ccccc2OC)C(C#N)C(=O)N1 (stereo unspecified)	98
Cn1c(C(=O)NCc2ccccc2F)cc2cc(S(=O)(=O)N3CCCCC3)ccc21	89	GIV Gai FP conf=79;GIV-Gai AS conf=33586
CCOc1ccccc1CNC(=O)c1cc2cc(S(=O)(=O)N3CCCCC3)ccc2n1C	98

Seven compounds drawn at random from the list so far, as already listed:
SMILES	GIV-Gai inh	others
COc1cc(/C=C2\N=C(c3ccccc3)N(c3ccc(Br)cc3)C2=O)cc(OC)c1OC	111
CCN(CC)C(=O)Cn1cc(/C=C2/C(=O)N(C)c3ccccc32)c2ccccc21	104
COc1ccc(OC)c(C2=NS(=O)(=O)N(C)C(C(=O)Nc3ccc(F)cc3F)=C2)c1	95	GIV Gai FP conf=80;GIV-Gai AS conf=32539
Cn1c(SCc2cccnc2)ncc(C(=O)Nc2ccc(F)cc2)c1=O	101
COCCN1C(=O)/C(=C/c2cn(CC(=O)OC)c3ccccc23)C(=O)N(c2ccccc2)C1=O	118
Cn1c(C(=O)NCc2ccccc2F)cc2cc(S(=O)(=O)N3CCCCC3)ccc21	89	GIV Gai FP conf=79;GIV-Gai AS conf=33586
Cc1ccc(C)n1-c1ccc(C(=O)O)c(C(=O)O)c1	60*	GIV Gai FP conf=49*;GIV-Gai AS conf=3015*

Continuation:
SMILES	GIV-Gai inh	others
Cc1ccccc1CCNC(=O)c1cc2cc(S(=O)(=O)N3CCCCC3)ccc2n1C	99
COc1cccc(NC(=O)c2cc3c(=O)n(Cc4cccnc4)ccc3nc2C)c1	97
COc1ccc(Cn2ccc3nc(C)c(C(=O)Nc4cc(OC)cc(OC)c4)cc3c2=O)cc1	104
CCc1cccc(NC(=O)c2cc3c(=O)n(Cc4ccc(OC)cc4)ccc3nc2C)c1	88	GIV Gai FP conf=79;GIV-Gai AS conf=34190
Cc1ccc2nsnc2c1S(=O)(=O)NCc1ccc(S(N)(=O)=O)cc1	108
COc1ccc(OC)c(C2C3=C(CC(C)(C)CC3=O)Nc3ccccc3N2C(=O)c2ccccc2)c1 (stereo unspecified)	103
O=C(O)c1cccc(S(=O)(=O)/N=C2/C=C(NS(=O)(=O)c3ccccc3)C(=O)c3ccccc32)c1	63*	GIV Gai FP conf=62;GIV-Gai AS conf=12814*
O=C(O)c1cccc(S(=O)(=O)Nc2ccccc2Cl)c1	100
O=C1C(NS(=O)(=O)c2ccccc2)=C/C(=N\S(=O)(=O)c2ccc(F)cc2)c2ccccc21	92
Cc1[nH]c(C)c(S(=O)(=O)N2CCN(CC(C)C)CC2)c1-c1nnc(C2CCC2)o1	105
